In PubChem BioAssay (EPA / NIEHS) one finds outcome data, which are given here for ten compounds.

The chains behind the UniProt entries cited, without tags or fusion partners.
UniProt P04637, whole entry: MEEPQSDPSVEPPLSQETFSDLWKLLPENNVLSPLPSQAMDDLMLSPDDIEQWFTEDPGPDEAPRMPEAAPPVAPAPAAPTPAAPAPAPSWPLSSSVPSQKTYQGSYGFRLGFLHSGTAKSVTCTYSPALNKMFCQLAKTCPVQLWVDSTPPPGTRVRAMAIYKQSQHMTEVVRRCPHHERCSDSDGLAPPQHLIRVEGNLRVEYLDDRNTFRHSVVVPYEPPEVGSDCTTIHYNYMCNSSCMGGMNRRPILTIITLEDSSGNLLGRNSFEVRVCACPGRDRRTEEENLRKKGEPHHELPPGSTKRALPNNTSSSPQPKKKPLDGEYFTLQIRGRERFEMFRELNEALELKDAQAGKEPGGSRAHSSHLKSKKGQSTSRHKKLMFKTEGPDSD

The list shows a part of the results, in another mix than the full data. Activity calls are given as the source filed them. How the source made its calls: active means hit-call score of the fitted dose curve at least 0.9, where 1 is the maximum; inactive means score below 0.9.

The target in the assay is Cellular tumor antigen p53 (Homo sapiens) (UniProt P04637). As to the kind of experiment: ATG_p53_CIS: Attagene CIS-FACTORIAL HepG2 Assay for human p53 Transcription Factor (AID 2282994). As to conditions: HepG2 p53 cis-element reporter, Attagene mRNA; actives raise or lower the signal. The procedure: ATG_CIS is a cell-based, multiplexed-readout assay that uses HepG2, a human liver cell line, with measurements taken at 24 hours after chemical dosing in a 24-well plate.ATG_p53_CIS is one of 52 assay component(s) measured or calculated from the ATG_CIS assay. It is designed to make measurements of mRNA induction, a form of inducible reporter, as detected with fluorescence intensity signals by Reverse transcription polymerase chain reaction (RT-PCR) and Capillary electrophoresis technology.Data from the assay component ATG_p53_CIS was analyzed into 1 assay endpoint. This assay endpoint, ATG_p53_CIS, was analyzed with bidirectional fitting relative to DMSO as the negative control and baseline of activity. Using a type of inducible reporter, measures of mRNA for gain or loss-of-signal activity can be used to understand the reporter gene at the transcription factor-level as they relate to the gene TP53. Furthermore, this assay endpoint can be referred to as a primary readout, because this assay has produced multiple assay endpoints where this one serves a reporter gene function. To generalize the intended target to other relatable targets, this assay endpoint is annotated to the dna binding intended target family, where the subfamily is tumor suppressor.
Human liver HepG2 cells are transiently transfected with multiple reporter transcription units (MRTUs) in 6-well plates using FuGene 6 reagent (Roche; 3 ml FuGene/1 mg DNA). The MRTU constructs are regulated by a cis-regulating element (promoter). […] A major difference between the CIS and TRANS system is that in CIS activities of endogenous TFs are measured, whereas the TRANS assay evaluates changes in activities of exogenous, chimeric NR-Gal4 proteins. […] At the end of 24 hour incubation, total RNA was isolated using TriZol reagent (Invitrogen). The isolated RNA is then reverse-transcribed using oligo(dT) primer and Mo-MLV reverse transcriptase (Invitrogen) with DNAse I (Ambion) treatment for 30 min. The one-tenth of the produced cDNA was amplified by PCR using Taq DNA polymerase (Invitrogen) and two reporter sequence-specific primers. The PCR products were fluorescently labeled by primer extension with 6-arboxyfluorescein (6-FAM) 5'-labeled reporter sequence-specific primer (2 min at 95 C, 20 s at 68 C and 10 min at 72 C) and these products were digested with 5U of HpaI (New England Biolabs) for 2h at 37 C. The fragments were purified using Qiaquick PCR columns (Qiagen), analyzed on an ABI 3130xL genetic analyzer (Applied Biosystems) with peak positions identified by using a set of X-rhodamine (ROX)-labeled MapMarker1000 molecular weight standards (BioVentures). The raw capillary electrophoresis data was processed using Attagraph software (Attagene).
Regarding `Cc1cccc([N+](=O)[O-])c1[N+](=O)[O-]`, the call was inactive.
For `O=[N+]([O-])OCC(CO[N+](=O)[O-])(CO[N+](=O)[O-])CO[N+](=O)[O-]`, the compound was classed as inactive.
Consider `CN(C)CCCl`, for which the compound was called inactive.
As to `CC(C)N(CCO)C(C)C`, the result was inactive.
For `N#CBr` the value was “inactive”; for `COP(C)(=O)OC`, “inactive”.
Regarding `CC(C)OP(C)(=O)OC(C)C`, the result was inactive.
For `O=[N+]([O-])c1cccc([N+](=O)[O-])c1`, the call was inactive.
Consider `Cc1ccc([N+](=O)[O-])cc1[N+](=O)[O-]`, for which the compound was classed as inactive.
For `COc1ccc([N+](=O)[O-])cc1[N+](=O)[O-]` the value was “inactive”.
